Assay results reported in PubChem BioAssay AID651572 (The Scripps Research Institute Molecular Screening Center, 2012).
This is a selection; strong and weak results do not stand in their true shares. Calls of active or inactive are those of the source.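 Rule for the calls: active = inhibition above a per-plate limit, mean inhibition of low control wells plus 3 SD (cut at about 25% in these data); inactive = the rest.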

By UniProt entry, the sequences of proteins in these tests, tags left out. Residues count along the entry.
UniProt Q62848, 1-136 limits assumed: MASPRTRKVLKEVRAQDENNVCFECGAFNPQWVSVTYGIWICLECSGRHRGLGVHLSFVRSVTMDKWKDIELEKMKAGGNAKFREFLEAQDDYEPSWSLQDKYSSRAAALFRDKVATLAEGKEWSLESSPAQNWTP

biological target: ADP-ribosylation factor GTPase-activating protein 1 (Rattus norvegicus) (UniProt Q62848); assay: blockers of ARFGAP1-stimulated ARF1 GTP hydrolysis – biochemical, fluorescence polarization, GDP tracer, primary screen (AID 651572); conditions: GDP FP detection, at 16.5 µM, hits give high values;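 note: 0% = DMSO wells with enzyme and 100% = wells lacking Arfgap1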
In short: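 Assay system: Rat Arfgap1 GAP domain (His6, aa 1-136), purified enzyme | Buffer or medium: HEPES 25 mM pH 7.5, NaCl 150 mM, MgCl2, DTT | Schedule: GTP hydrolysis reaction 2 h at 25 °C | Signal: FP of antibody-bound GDP Alexa 633 tracer, ex 620/em 688 nm | Measure: Percent inhibition of Arfgap1-stimulated GTP hydrolysis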

| SMILES | inhibition |
| --- | --- |
| CCCCn1nnnc1C(c1ccccc1)N1CCC(n2c(=O)[nH]c3ccccc32)CC1 (stereo not given) | inactive: 0.11% |
| COc1cc(C(=O)NCC2(N3CCOCC3)CCCCC2)cc(OC)c1C | inactive: 6.14% |
| O=C(NCC1(N2CCOCC2)CCCCC1)c1cc(Br)ccc1Cl | inactive: 4.44% |
| O=c1[nH]c2ccccc2n1C1CCN(C(c2cccs2)c2nnnn2C2CCCCC2)CC1 (stereo not given) | inactive: -11.6% |
| COc1ccc(C(=O)NCC2(N3CCOCC3)CCCCC2)cc1OC | inactive: 3.34% |
| O=c1[nH]c2ccccc2n1C1CCN(C(c2ccnc3ccccc23)c2nnnn2C2CCCC2)CC1 (stereo not given) | inactive: -1.37% |
| COc1cccc(C(c2nnnn2C(C)(C)C)N2CCC(n3c(=O)[nH]c4ccccc43)CC2)c1OC (stereo not given) | inactive: 9.09% |
| CCOC(=O)N1CCC(Nc2ccc(C)cc2)CC1 | inactive: 7.07% |
| N/C(=N\O)c1c(N)no[n+]1[O-] | inactive: 14.8% |
| O=C(OC1CN2CCC1CC2)C1c2ccccc2C=Cc2ccccc21 (stereo not given) | inactive: -1.37% |
| O=c1[nH]c2ccccc2n1C1CCN(C(c2cccs2)c2nnnn2C2CCCC2)CC1 (stereo not given) | inactive: 13.2% |
| CCCCn1nnnc1C(c1cccc(OC)c1OC)N1CCC(n2c(=O)[nH]c3ccccc32)CC1 (stereo not given) | inactive: 0.38% |
| N#Cc1ccc(C(=O)NCC2(N3CCCCC3)CCCCC2)cc1 | inactive: 9.46% |
| CC(C)(C)OC(=O)N1CCC(N(C(=O)c2ccccc2)c2ccc(Cl)cc2)CC1 | inactive: 3.41% |
| CN(C)C1(CNC(=O)c2cccc(C#N)c2)CCCCC1 | inactive: -0.36% |
| c1ccc(CN2CCC(Nc3ccccc3)CC2)cc1 | inactive: -8.39% |
| C/C(N)=N\P(=O)(Oc1ccccc1)Oc1ccccc1 | inactive: 1.82% |
| Cc1cc(N(CCCl)CCCl)ccc1C=O | inactive: -13.9% |
| CCCN1CCC(Nc2cc(OC)cc(OC)c2)CC1 | inactive: -3.4% |
| O=c1[nH]c2ccccc2n1C1CCN(C(c2ccccc2)c2nnnn2C2CCCC2)CC1 (stereo not given) | inactive: -8.21% |
| CC(C)(C)n1nnnc1C(c1cccc2ccccc12)N1CCC(n2c(=O)[nH]c3ccccc32)CC1 (stereo not given) | inactive: 0.49% |
| CC(=O)N(c1ccccc1)C1CCNCC1 | inactive: -6.24% |
| COc1cccc(C(c2nnnn2C2CCCCC2)N2CCC(n3c(=O)[nH]c4ccccc43)CC2)c1OC (stereo not given) | inactive: 17.2% |
| CCC(c1nnnn1C1CCCCC1)N1CCC(n2c(=O)[nH]c3ccccc32)CC1 (stereo not given) | inactive: -9.25% |
| O=c1[nH]c2ccccc2n1C1CCN(C(c2ccnc3ccccc23)c2nnnn2C2CCCCC2)CC1 (stereo not given) | inactive: 3.22% |
